# Measured values taken from patent US20230167408A1, “METHODS AND COMPOSITIONS FOR MAINTAINING AND EXPANDING HEMATOPOIETIC STEM CELLS” (Trailhead Biosystems Inc., priority 2021, published 2023).
# B1: IL3: commonly used cytokine to expand HSC (protein, UniProt P08700 20-152, looked up)
# Interleukin-3: APMTQTTPLKTSWVNCSNMIDEIITHLKQPPLPLLDFNNLNGEDQDILMENNLRRPNLEAFNRAVKSLQNASAIESILKNLLPCLPLATAAPTRHPIHIKDGDWNEFRRKLTFYLKTLENAQAQQTTLSLAIF
# Test system: CD34+ cells
# Experiment: Culture of CD34+ cells in the presence of commonly used cytokines
# Format: cell-based, human
# Description: To further validate the HSC culture recipe described in Example 1, CD34+ cord blood derived cells were grown for 7 days in media comprising the ingredients shown in Table 1 and flow cytometry analysis was used to assess markers of the LT-HSC state. Markers tested included Lineage (CD3, CD14, CD16, CD19, CD20, CD56), CD34, CD38, CD45RA and CD90. Additionally, cells were grown in media with SCF and TPO as a control, commonly used by others to promote HSC expansion. […] 100,000 cells were plated for each condition.
molecule,measurement,value
B1,lineage bias of CD34+ cells cultured in the presence of the cytokine,induction of a myeloid bias
